The source of these data is paper PMC8249445, “Complex effects of macrolide venturicidins on bacterial F-ATPases likely contribute to their action as antibiotic adjuvants” (Scientific Reports, 2021).

Sequences of proteins named here, by UniProt entry; tags and fusion partners are left off. A change or cut given only in a name is not applied to a line headed by its entry.
UniProt P68699: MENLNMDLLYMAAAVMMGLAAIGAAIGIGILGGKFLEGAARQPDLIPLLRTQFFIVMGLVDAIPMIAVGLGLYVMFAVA

Usually Ki stands for a dissociation constant, usually derived from enzyme kinetics or from competition with a known ligand.

This assay concerns the target T1, FOF1-ATPase of WT E. coli membranes (Escherichia coli, UniProt P68699).
T1 construct: To express haploid levels of EcFOF1 containing WT-ε or ε88-stop; expressed in transfected cells; host or cells: E. coli strain XH1 (chromosomal atpC deletion) carrying pMBε1; inverted membrane vesicles
It counts as biochemical. As to conditions: alone (Fig. 2A), early inhibition, read-out: VentA at half-max. inhibition (Ki).

On to venturicidin, for which the Ki amounted to 0.7 µM.
